Test results published in US20260207704A1, “STAPLED PEPTIDES AND METHODS THEREOF” (priority 2022, published 2026).

The chains behind the UniProt entries cited, without tags or fusion partners.
UniProt P35222, whole entry: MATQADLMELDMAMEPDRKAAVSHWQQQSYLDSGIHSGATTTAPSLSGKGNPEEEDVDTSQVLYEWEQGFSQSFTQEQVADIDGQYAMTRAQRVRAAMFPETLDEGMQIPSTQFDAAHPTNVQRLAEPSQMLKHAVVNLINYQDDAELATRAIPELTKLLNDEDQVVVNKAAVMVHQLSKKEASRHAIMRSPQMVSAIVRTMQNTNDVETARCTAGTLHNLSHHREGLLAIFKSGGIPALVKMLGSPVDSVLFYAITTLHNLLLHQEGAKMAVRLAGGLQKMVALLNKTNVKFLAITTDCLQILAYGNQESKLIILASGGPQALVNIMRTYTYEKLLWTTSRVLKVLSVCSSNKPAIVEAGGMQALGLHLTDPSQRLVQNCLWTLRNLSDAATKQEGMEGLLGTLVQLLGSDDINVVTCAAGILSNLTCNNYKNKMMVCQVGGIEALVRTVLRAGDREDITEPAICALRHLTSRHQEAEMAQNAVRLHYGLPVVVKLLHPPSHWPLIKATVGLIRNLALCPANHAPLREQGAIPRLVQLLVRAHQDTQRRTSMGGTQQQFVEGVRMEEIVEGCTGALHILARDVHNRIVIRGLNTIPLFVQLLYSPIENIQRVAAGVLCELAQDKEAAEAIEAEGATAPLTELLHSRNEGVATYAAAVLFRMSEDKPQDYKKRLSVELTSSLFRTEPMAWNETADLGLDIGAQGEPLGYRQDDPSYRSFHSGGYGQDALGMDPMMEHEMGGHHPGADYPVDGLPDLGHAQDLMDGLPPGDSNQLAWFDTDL

Key:
beta-catenin = beta-catenin (Homo sapiens, UniProt P35222); assay: fluorescence polarization binding to beta-catenin; conditions: beta-Catenin FP IC50 (nM)
beta-catenin/TCF4 = molecular target: T1, beta-catenin/TCF4 (Homo sapiens, UniProt P35222); assay: Nano-BRET target engagement assay (HEK293 cells); type: cell-based
T1 construct: expressed in transfected cells; host or cells: HEK293 cells

| SMILES | IC50 (beta-catenin) [nM] | IC50 (beta-catenin/TCF4) [µM] |
| --- | --- | --- |
| CC(=O)N1CCC[C@]12CC=CCCCC1(CCCC=CCCCOC(=O)N3CC[C@@]4(C3)NC(=O)[C@H](CCCCNC(=O)CC[C@@H](C(=O)N[C@H](CO)[C@@H](C)O)NC(=O)[C@H](Cc3csc5ccccc35)NC(=O)[C@H](Cc3ccsc3)NC4=O)NC(=O)[C@H](Cc3ccccc3)NC(=O)[C@H](C)NC(=O)[C@H](C)NC(=O)[C@H](Cc3cccc(C(=O)O)c3)NC(=O)[C@H](CC(=O)O)NC1=O)NC(=O)[C@H](CC(C)(C)C)NC(=O)[C@H](CC(=O)O)NC2=O (single isomer, unassigned) [I-62, Ac-PL3-Asp-Npg-B5-Asp-3COOHF-Ala-Ala-Phe-Lys*3-PyrS2-3Thi-BztA-GlnR*3-Throl] | < 50 | 3 to 10 |
| CC(=O)N1CCC[C@]12CC=CCCCC1(CCCC=CCCCOC(=O)N3CC[C@@]4(C3)NC(=O)[C@H](CSCc3ccccc3CSC[C@@H](C(=O)N[C@@H](C)C(N)=O)NC(=O)[C@H](Cc3csc5ccccc35)NC(=O)[C@H](Cc3ccccc3C(F)(F)F)NC4=O)NC(=O)[C@H](Cc3ccccc3)NC(=O)[C@H](C)NC(=O)C(C)(C)NC(=O)[C@H](Cc3cccc(C(=O)O)c3)NC(=O)[C@H](CC(=O)O)NC1=O)NC(=O)[C@H](CC(C)(C)C)NC(=O)[C@H](CC(=O)O)NC2=O (stereo partly drawn) [I-376, Ac-PL3-Asp-Npg-B5-Asp-3COOHF-Aib-Ala-Phe-[oXyl]Cys-PyrS2-2F3MeF-BztA-Cys-Ala-NH2] | 200 to 750 | > 10 |
| CC(=O)N1CCC[C@]12CC=CCCCC1(CCCC=CCCCOC(=O)N3CC[C@@]4(C3)NC(=O)[C@H](CCCCNC(=O)CC[C@@H](C(=O)N[C@@H](C)C(=O)NC(CO)CO)NC(=O)[C@H](Cc3csc5ccccc35)NC(=O)[C@H](Cc3ccccc3C(F)(F)F)NC4=O)NC(=O)[C@H](Cc3ccccc3)NC(=O)[C@H](C)NC(=O)C(C)(C)NC(=O)[C@H](Cc3cccc(C(=O)O)c3)NC(=O)[C@H](CC(=O)O)NC1=O)NC(=O)[C@H](CC(C)(C)C)NC(=O)[C@H](CC(=O)O)NC2=O (relative stereo) [I-223, Ac-PL3-Asp-Npg-B5-Asp-3COOHF-Aib-Ala-Phe-Lys*3-PyrS2-2F3MeF-BztA-GlnR*3-Ala-Serol] | < 50 | 1.5 to 3 |
